# Measured values from ChEMBL document CHEMBL1152596, “Inhibition of serotonin and norepinephrine reuptake and inhibition of phosphodiesterase by multi-target inhibitors as potential agents for depression” (Bioorg Med Chem, 2009).
# Protein sequences, listed by entry. Tags and fused reporters are not part of them. Lines headed by an entry give the natural chain unless they say otherwise; changes in a name come on top.
# UniProt Q08499: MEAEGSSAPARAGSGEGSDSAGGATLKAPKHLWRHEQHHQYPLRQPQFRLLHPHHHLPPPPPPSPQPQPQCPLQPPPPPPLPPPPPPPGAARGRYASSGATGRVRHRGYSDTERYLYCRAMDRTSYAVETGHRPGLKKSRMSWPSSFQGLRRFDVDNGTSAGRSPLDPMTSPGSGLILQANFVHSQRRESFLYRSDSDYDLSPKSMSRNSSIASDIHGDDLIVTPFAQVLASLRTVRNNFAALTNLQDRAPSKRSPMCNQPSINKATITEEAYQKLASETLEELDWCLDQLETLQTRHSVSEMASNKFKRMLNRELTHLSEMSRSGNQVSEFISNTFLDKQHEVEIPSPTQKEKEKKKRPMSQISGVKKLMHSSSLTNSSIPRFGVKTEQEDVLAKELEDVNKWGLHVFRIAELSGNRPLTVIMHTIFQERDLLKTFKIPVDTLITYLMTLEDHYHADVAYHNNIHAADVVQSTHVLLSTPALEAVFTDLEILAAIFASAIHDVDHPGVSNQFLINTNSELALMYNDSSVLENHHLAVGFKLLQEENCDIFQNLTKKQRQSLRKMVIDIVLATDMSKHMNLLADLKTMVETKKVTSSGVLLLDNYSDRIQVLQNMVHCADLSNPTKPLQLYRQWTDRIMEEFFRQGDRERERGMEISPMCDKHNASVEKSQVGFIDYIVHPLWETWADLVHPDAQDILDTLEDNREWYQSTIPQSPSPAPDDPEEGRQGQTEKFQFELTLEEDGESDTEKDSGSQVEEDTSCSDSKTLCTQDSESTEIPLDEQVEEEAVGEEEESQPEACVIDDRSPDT
# Target: 3',5'-cyclic-AMP phosphodiesterase 4D (Homo sapiens, UniProt Q08499)
structure (smiles),measurement,value
COc1ccc(C2=NN(CCCCCBr)C(=O)[C@@H]3CC=CC[C@H]23)cc1OC (relative stereo),pIC50,8.70

# pIC50: −log10 of the molar value.
